Measurements: patent publication US5892018A, “DNA sequences encoding a brain sodium channel protein” (priority 1997, dated 1999)

Target: T1, BNC1 (Homo sapiens, UniProt Q16515)
T1 construct: a 1539-bp open reading frame extending to the 3' stop codon; expressed in transfected cells; host or cells: Xenopus laevis oocytes, nuclear injection of BNC1 cDNA in pMT3
T1 sequence (Q16515 1-512 T495A): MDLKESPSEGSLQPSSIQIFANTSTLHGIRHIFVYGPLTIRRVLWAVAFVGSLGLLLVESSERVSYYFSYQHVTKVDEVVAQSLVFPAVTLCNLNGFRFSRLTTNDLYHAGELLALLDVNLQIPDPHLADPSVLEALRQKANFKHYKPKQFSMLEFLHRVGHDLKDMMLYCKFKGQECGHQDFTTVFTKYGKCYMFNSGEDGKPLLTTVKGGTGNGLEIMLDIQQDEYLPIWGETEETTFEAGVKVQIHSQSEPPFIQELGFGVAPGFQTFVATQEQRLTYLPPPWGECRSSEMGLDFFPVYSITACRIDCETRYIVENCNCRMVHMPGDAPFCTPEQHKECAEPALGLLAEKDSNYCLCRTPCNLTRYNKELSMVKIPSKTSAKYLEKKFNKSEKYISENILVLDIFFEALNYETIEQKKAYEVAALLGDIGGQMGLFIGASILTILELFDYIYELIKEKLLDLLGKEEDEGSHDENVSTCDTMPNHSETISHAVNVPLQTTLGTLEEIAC
Assay: Two-electrode voltage clamp of Xenopus oocytes expressing BNC1
Format: cell-based
Conditions: BNC1 in Xenopus oocytes; peptide added to bathing solution at 1-30 μM
Protocol: Expression of BNC1 in Xenopus laevis Oocytes--BNC1 was expressed in Xenopus oocytes by nuclear injection of BNC1 cDNA cloned into pMT3 (0.2-0.3 ng). Control oocytes were injected with H2 O. α-, β-, and γhENaC (αβγhENaC) were expressed as described previously. Oocytes were maintained at 18° C. in modified Barth's solution, and current was measured by two-electrode voltage clamp 1 day after injection. During voltage clamp, oocytes were bathed in 116 mM NaCl, 2 mM KCl, 0.4 mM CaCl2, 1 mM Mg Cl2, 5 mM Hepes (pH 7.4 with NaOH). To determine ionic selectivity, NaCl was replaced with LiCl or KCl. Current-voltage relationships were determined by stepping from a holding potential of -60 mV to potentials between -100 and +40 mV for 1 second. Amiloride-sensitive current was obtained by subtracting current during exposure to a maximal concentration of amiloride (100 μM) from current prior to amiloride addition. Phe-Met-Arg-Phe-NH2 (FMRF-am-ide), Phe-Leu-Phe-Gln-Pro-Gln-Arg-Phe-NH2 (F-8-F-amide), and Ala-Gly-Glu-Gly-Leu-Ser-Ser-Pro-Phe-Trp-Ser-Leu-Ala-Ala-Pro-Gln-Arg-Phe-NH2 (A-18-F-amide) were obtained from Sigma and were added to the bathing solution at 1-30 μM.

## CSCC[C@H](NC(=O)[C@@H](N)Cc1ccccc1)C(=O)N[C@@H](CCCNC(=N)N)C(=O)N[C@@H](Cc1ccccc1)C(N)=O [FMRF-amide, Phe-Met-Arg-Phe-NH2]
  activation of BNC1 current by agonist peptide: not activated
